These results are taken from patent US20230023414A1, “METHODS AND DEVICES FOR TREATING A DISEASE WITH BIOTHERAPEUTICS” (PROGENITY, INC., priority 2018, published 2023).

The nature of data set [1]: Pharmacokinetics (blood insulin) of regular human insulin (NOVOLIN R) after subcutaneous or intra-jejunal jet delivery in swine. It is filed as in vivo, Yorkshire female swine. Particulars: individual animals. On the procedure:
A study was carried out to compare the pharmacokinetics (PK) and pharmacodynamics (PD) of regular human insulin (NOVOLIN® R) in swines after subcutaneous (SC) administration or intra-jejunal (IJ) administration via a single nozzle jet delivery device.
A total of 18 Yorkshire female swine in good health and weighing 60-70 kg each were included in this study. Swine were divided into two groups with 9 animals per group. All 9 animals in group 01 were administered a single subcutaneous injection of insulin aspart (NOVOLIN® R) (˜40 U) on one side of the neck at a depth of ˜5 mm. A sham surgical laparotomy was performed. All 9 animals in group 02 were administrated regular human insulin (NOVOLIN® R) (˜40 U) delivered in the proximal jejunum by a jet delivery device placed by surgical laparotomy. The jet delivery device was configured with the single nozzle in an axial orientation. […]
Blood samples were kept on wet ice until centrifugation and separation of plasma. […] Glucose was monitored every five (5) minutes during the study by portable glucose analyzer (StatStrip (SS) hospital glucose monitoring system (Nova Biomedical, Waltham, Mass.)). At each time point, approximate 0.1 mL of blood was drawn and immediately placed on a glucose monitoring test strip, and the whole blood glucose concentration was measured by the SS in triplicate. […]

The conditions of data set [2]: cited from earlier work.

Like-named read-outs stand apart in the source and are kept apart here.

With “Novolin® R: regular human insulin (recombinant), aqueous solution 100 units/mL with glycerol, metacresol, zinc chloride, pH 7.4”, the Tmax in data set [1] (IJ administration by jet delivery device) and in data set [1] (SC administration) was 1.25 h throughout.

abatacept: in data set [2] (SC administration), the “Approved Dosing Info: Bio Avail” value is listed as 79%.

With interferon beta-1a, in data set [2] (IM administration), the “Approved Dosing Info: Bio Avail” value is given as 40%.
